Reference: patent publication US10513538B2, “Dipeptidyl peptidase-IV (DPPIV), inhibitory peptide compound, composition containing the same, and production method for the same” (MARUHA NICHIRO CORPORATION, priority 2013, dated 2019)

Sequences of proteins named here, by UniProt entry; tags and fusion partners are left off.
UniProt P27487, whole entry: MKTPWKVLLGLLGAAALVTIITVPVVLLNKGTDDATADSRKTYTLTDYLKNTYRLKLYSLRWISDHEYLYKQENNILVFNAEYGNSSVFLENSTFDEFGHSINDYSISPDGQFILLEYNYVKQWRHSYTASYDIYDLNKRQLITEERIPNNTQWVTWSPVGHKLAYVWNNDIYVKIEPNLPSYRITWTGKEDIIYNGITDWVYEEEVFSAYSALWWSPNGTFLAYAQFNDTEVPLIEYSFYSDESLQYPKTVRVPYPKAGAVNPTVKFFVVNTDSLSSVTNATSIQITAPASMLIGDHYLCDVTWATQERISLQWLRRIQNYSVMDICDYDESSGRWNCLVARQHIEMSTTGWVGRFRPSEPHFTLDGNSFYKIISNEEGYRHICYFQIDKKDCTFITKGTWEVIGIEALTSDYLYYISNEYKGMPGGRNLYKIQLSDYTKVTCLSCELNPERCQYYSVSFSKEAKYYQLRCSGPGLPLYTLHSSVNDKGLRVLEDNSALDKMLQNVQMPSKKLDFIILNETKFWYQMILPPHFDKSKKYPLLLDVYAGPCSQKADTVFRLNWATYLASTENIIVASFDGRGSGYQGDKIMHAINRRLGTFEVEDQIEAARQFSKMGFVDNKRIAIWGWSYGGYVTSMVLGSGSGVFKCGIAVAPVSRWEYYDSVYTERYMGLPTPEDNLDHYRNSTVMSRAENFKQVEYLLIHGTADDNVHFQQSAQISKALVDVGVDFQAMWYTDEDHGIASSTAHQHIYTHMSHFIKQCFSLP

Biological target: T1, DPPIV (Human, recombinant) (Homo sapiens, UniProt P27487)
T1 construct: purchased Biomol (DPPIV Drug Discovery Assay Kit, Enzo Life Sciences, Inc.)
Experiment: DPPIV inhibitory activity measurement with partly modified DPPIV Drug Discovery Assay Kit (AMC substrate)
Type: biochemical
Settings: for IC50: synthesized peptide, serially diluted; for Activity Contribution Ratio (%): contribution of the peptide to the DPPIV inhibitory activity of the salmon milt peptide composition, from content, peptide IC50 and composition IC50

Row | Structure (SMILES) | IC50 | Activity Contribution Ratio (%)
1 | CC(C)C[C@H](N)C(=O)N1CCC[C@H]1C(=O)N[C@@H](Cc1ccccc1)C(=O)O [LPF, Leu-Pro-Phe] | 88 µM | 0.2%
2 | CC[C@H](C)[C@H](N)C(=O)N1CCC[C@H]1C(=O)N[C@@H](CC(C)C)C(=O)O [IPL, Ile-Pro-Leu] | 26 µM | 0.4%
3 | CC(C)C[C@H](NC(=O)[C@@H]1CCCN1C(=O)[C@@H](N)C(C)C)C(=O)O [VPL, Val-Pro-Leu] | 19 µM | 2.0%
4 | CC[C@H](C)[C@H](N)C(=O)N1CCC[C@H]1C(=O)N[C@H](C(=O)O)[C@@H](C)CC [IPI, Ile-Pro-Ile] | 3 µM | 2.5%

Further lines, results first:

Row | IC50 | Activity Contribution Ratio (%) | Structure (SMILES)
5 | > 100 µM | – | CC[C@H](C)[C@H](NC(=O)[C@@H](N)C(C)C)C(=O)N1CCC[C@H]1C(=O)O [VIP, Val-Ile-Pro]
6 | 3 µM | 5.1% | CC[C@H](C)[C@H](NC(=O)[C@@H]1CCCN1C(=O)[C@@H](N)C(C)C)C(=O)O [VPI, Val-Pro-Ile]
7 | 82 µM | 0.1% | CC(C)C[C@H](NC(=O)[C@@H]1CCCN1C(=O)[C@@H](N)CC(C)C)C(=O)O [LPL, Leu-Pro-Leu]
